This is a sample that favours compounds with a hit; in the whole collection about 2.3% have one here.
MC4R antag cAMP – human MC4R antagonism in cAMP assay | P32245 | MC4R-expressing cells, MTII-stimulated cAMP, LANCE TR-FRET | inhibition, % at 6.5 µM | actives 0.48% (n = 360,000) | AID 540295;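 active = inhibition above its plate's cutoff, the mean of tested wells on that plate plus 3 SD, cut at about 29% in these data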;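 also: 0% = Melanotan II alone and 100% = Melanotan II plus saturating MCL0020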
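Assay system: U2OS-MC4R stable cell line; Also added: Melanotan II; Technique: Eu-cAMP/anti-cAMP TR-FRET, emission 671 nm; Times: 30-min compound, 1-h challenge, 1-h detection, room temperature.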
Yeast UUG start – alters start codon recognition fidelity in yeast; AID 602363; activity score, % at 18.7 µM; 350,000 tested, 0.13% active; S. cerevisiae UUG-firefly luciferase reporter, luminescence/redox ratio;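 active means replicate mean at a twofold rise or more, about +100% in these data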;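 further: firefly luciferase made from a UUG start codon reports start codon fidelity; reporter light over untreated wells divided by growth signal over untreated wells; some hits fall short of that in this replicate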
ASAP1 GAP inh – inhibitors of human ASAP1 ArfGAP activity; Q9ULH1; actives 0.19% (n = 360,000); inhibition, % at 16.5 µM; ASAP1-stimulated ARF1 GTP hydrolysis, GDP FP detection; in the data active = inhibition above about 25%;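 also: 0% = vehicle with enzyme and substrate and 100% = no enzyme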
ARFGAP1 inhibitor – inhibitors of rat ARFGAP1; Q62848; Arfgap1-stimulated ARF1 GTP hydrolysis, GDP FP detection; inhibition, % at 16.5 µM; actives 0.26% (n = 360,000);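 active = inhibition above a per-plate limit, mean inhibition of low control wells plus 3 SD, cut at about 25% in these data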;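 also: 0% = DMSO wells with enzyme and 100% = wells lacking Arfgap1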
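Replicates: Single well per compound | Assay system: Truncated rat Arfgap1 GAP domain | Control set: No-Arfgap1 wells (100%) versus DMSO full-reaction wells (0%) | Times: Enzyme reaction 120 min at 25 °C after 20 min preincubation | Reagent: Human ARF1(Δ1-17)-GTP substrate | Measured by: Tracer-displacement fluorescence polarization with EDTA stop, 620/688 nm | Measure: Percent inhibition of Arfgap1-stimulated GTP hydrolysis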
MC4R barr agon – human MC4R agonism via beta-arrestin; U2OS MC4R beta-arrestin complementation, luminescence; percent of melanotan II response, DMSO zero; activation, % at 8.9 µM; actives 0.98% (n = 360,000); AID 540308;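 active = activation above a per-plate cutoff, the mean activation of sample wells on that plate plus 3 SD, cut at about 8% in these data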
NRP1-CendR mod – NRP-1/CendR interaction modulation. FAM-RPARPAR peptide binding to NRP-1, fluorescence polarization. inhibition, % at 25 µM. actives 0.85% (n = 360,000);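 active = inhibition or corrected inhibition above about 18%, plus a signal ratio from 0.5 to 1.5, limit read from the data, passing the limit was not always enough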
Numbers without * were called inactive; · = no result.

# | ARFGAP1 inhibitor | Yeast UUG start | MC4R barr agon | MC4R antag cAMP | ASAP1 GAP inh | NRP1-CendR mod | Molecule
1 | -14 | · | -2 | -9 | 22 | 45* | COCC(=O)OC1CCn2c1nc1c2C(=O)C(C)=C(NC(C)=O)C1=O (centres undefined)
2 | 2 | · | -1 | 17 | 5 | 30* | Cc1ccc(-n2c(C)cc(C)c(C#N)c2=O)cc1C
3 | 1 | · | -2 | 4 | 1 | 10 | Cc1cc(C)n(-c2ccc(F)cc2)c(=O)c1C#N
4 | · | -3 | · | · | · | · | O=C(NCC[C@@H]1CC[C@@H](NC(=O)C2CC2)[C@H](CO)O1)c1cc(Cl)cc(Cl)c1
5 | · | -9 | · | · | · | · | CNC(=O)C[C@H]1CC[C@H]2[C@@H](COC[C@H](O)CN2Cc2ccc(Cl)c(Cl)c2)O1
6 | 11 | 2 | 4 | -3 | 5 | 29* | CCn1c(SCC(=O)N2CCN(c3ccc(F)cc3)CC2)nc2ccccc2c1=O
7 | 8 | -20 | -1 | 5 | -4 | -2 | CCn1c(SCC(=O)N2CCN(c3ccc(Cl)cc3)CC2)nc2ccccc2c1=O
8 | · | 5 | · | · | · | · | C[C@@H]1CN([C@@H](C)CO)C(=O)c2cc(NS(=O)(=O)c3cccs3)ccc2O[C@@H](C)CCCCO[C@H]1CN(C)C(=O)c1ccccc1
9 | · | 9 | · | · | · | · | CO[C@H]1CN(C)C(=O)c2cc(NC(=O)C3CC3)ccc2OC[C@@H](C)N(Cc2cccc(F)c2)C[C@@H]1C
10 | -5 | 16 | 0 | 6 | -6 | 26* | Cc1c(-n2c(CN3C(=O)c4ccccc4C3=O)nc3ccccc3c2=O)c(=O)n(-c2ccccc2)n1C
11 | 10 | -10 | -1 | -1 | 4 | -4 | CC(C)C[C@H](NC(=O)c1nc[nH]c1C(=O)N[C@@H](CC(C)C)C(=O)OCc1ccccc1)C(=O)OCc1ccccc1
12 | · | 1 | -3 | 10 | · | 28* | CC(C)(C)OC(=O)[C@H](CCCCN)NC(=O)c1[nH]cnc1C(=O)N[C@@H](Cc1ccccc1)C(=O)OCc1ccccc1
13 | -3 | 131* | 0 | 2 | -6 | 3 | CC(C)C[C@@H](CNCC(=O)[C@H](Cc1c[nH]c2ccccc12)NC(=O)c1[nH]cnc1C(=O)N[C@@H](C)CN)NC(=O)c1nc[nH]c1C(=O)N[C@@H](Cc1ccccc1)C(=O)O
14 | 8 | -5 | -1 | 2 | 8 | 20* | CC(C)C[C@H](NC(=O)c1[nH]cnc1C(=O)N[C@@H](Cc1ccccc1)C(=O)OCc1ccccc1)C(=O)OCc1ccccc1
15 | 3 | · | -1 | -2 | 0 | 29* | CCn1c2ccccc2c2cc([N+](=O)[O-])ccc21

Four compounds drawn at random from the list so far:
# | ARFGAP1 inhibitor | Yeast UUG start | MC4R barr agon | MC4R antag cAMP | ASAP1 GAP inh | NRP1-CendR mod | Molecule
13 | -3 | 131* | 0 | 2 | -6 | 3 | CC(C)C[C@@H](CNCC(=O)[C@H](Cc1c[nH]c2ccccc12)NC(=O)c1[nH]cnc1C(=O)N[C@@H](C)CN)NC(=O)c1nc[nH]c1C(=O)N[C@@H](Cc1ccccc1)C(=O)O
15 | 3 | · | -1 | -2 | 0 | 29* | CCn1c2ccccc2c2cc([N+](=O)[O-])ccc21
12 | · | 1 | -3 | 10 | · | 28* | CC(C)(C)OC(=O)[C@H](CCCCN)NC(=O)c1[nH]cnc1C(=O)N[C@@H](Cc1ccccc1)C(=O)OCc1ccccc1
11 | 10 | -10 | -1 | -1 | 4 | -4 | CC(C)C[C@H](NC(=O)c1nc[nH]c1C(=O)N[C@@H](CC(C)C)C(=O)OCc1ccccc1)C(=O)OCc1ccccc1

(list continues)
# | ARFGAP1 inhibitor | Yeast UUG start | MC4R barr agon | MC4R antag cAMP | ASAP1 GAP inh | NRP1-CendR mod | Molecule
16 | 15 | -8 | 8.3* | -7 | 1 | -11 | CN(C)CCn1c2ccccc2c2nc3ccc([N+](=O)[O-])cc3cc21
17 | 5 | -14 | 0 | 3 | 4 | 23* | O=C(NCc1ccccn1)C1CCN(C2CCN(Cc3cccc(F)c3)CC2)CC1
18 | · | -12 | · | · | · | · | C[C@@H]1CN([C@H](C)CO)C(=O)c2cc(NC(=O)Nc3cccc4ccccc34)ccc2O[C@@H]1CN(C)C(=O)Nc1ccc(F)cc1
19 | -1 | -9 | 4 | 8 | 2 | 40* | Cc1ccc(C2CN(C)C3(C(=O)Nc4ccccc43)C23COc2ccccc2C3=O)cc1 (centres undefined)
20 | 8 | -3 | 4 | 8 | 4 | 10 | CN1CC(c2ccccc2Cl)C2(COc3ccccc3C2=O)C12C(=O)Nc1ccccc12 (centres undefined)
21 | 2 | · | 2 | 0 | 11 | 27* | CN1CCN(S(=O)(=O)c2ccc(NC(=O)Nc3cccc(Cl)c3)cc2)CC1
22 | 7 | · | -1 | 9 | 20 | 3 | O=C(Nc1cccc(Cl)c1)Nc1cc(S(=O)(=O)N2CCCCC2)ccc1Cl
23 | 0 | -8 | -3 | 8 | -15 | 23* | C/C(=N\NC(=O)c1cc(O)ccc1O)c1cccc(NC(=O)c2cccc(Cl)c2)c1
24 | 8 | -21 | -4 | 8 | -10 | 11 | C/C(=N\NC(=O)c1cc(O)ccc1O)c1cccc(NC(=O)c2ccc(Cl)cc2)c1
25 | 0 | · | 0 | -6 | 9 | -13 | Cc1[nH][nH]c(=O)c1N=Nc1ccccc1Cl
26 | 0 | · | 2 | -3 | -14 | 41* | Clc1ccccc1N=Nc1ccccn1
27 | 7 | -2 | 3 | -4 | 4 | 35* | CC/C(=C1/C(=O)CC(C)(C)C(C(=O)OC)C1=O)N1CCCC1 (centres undefined)

Source: PubChem BioAssay (several laboratories)
